{"source": "patent US20150198612A1", "about": "“Isotopic Labelling of Proteins” (UNIVERSITY OF DUNDEE, priority 2012, published 2015)", "system": "Cyp4a", "test": "Western blot of liver drug metabolism enzymes, Cyp4a", "conditions": "C57BL/6 mice liver, once daily i.p. for 3 days, single inducer"}
{"compound": "CO[C@H]1/C=C/O[C@@]2(C)Oc3c(C)c(O)c4c(O)c(c(/C=N/N5CCN(C)CC5)c(O)c4c3C2=O)NC(=O)/C(C)=C\\C=C\\[C@H](C)[C@H](O)[C@@H](C)[C@@H](O)[C@@H](C)[C@H](OC(C)=O)[C@@H]1C", "note": "[RIF, rafamycin]", "values": [{"measurement": "Cyp4a expression", "value": "increased"}]}
